Measured values taken from patent US8507219B2, “Method of treating inflammation with statins” (MUSC Foundation for Research Development, priority 1997, dated 2013).

Tested on: cultured skin fibroblasts of X-ALD
Assay: VLCFA ratios (C26:0/C22:0, C24:0/C22:0) in X-ALD skin fibroblasts
Type: cell-based, human
Details: about 15 days of treatment

B1: interferon-β: interferon-β, indicated as a possible therapy for X-ALD (protein, UniProt P01574 22-187, looked up)
Interferon beta: MSYNLLGFLQRSSNFQCQKLLWQLNGRLEYCLKDRMNFDIPEEIKQLQQFQKEDAALTIYEMLQNIFAIFRQDSSSTGWNETIVENLLANVYHQINHLKTVLEEKLEKEDFTRGKLMSSLHLKRYYGRILHYLKAKEYSHCAWTIVRVEILRNFYFINRLTGYLRN
  ratios of C26:0/C22:0 and C24:0/C22:0 / level of VLCFA: ineffective in lowering the ratios of C26:0/C22:0 and C24:0/C22:0
